Assay results taken from PubChem BioAssay AID720 (The Scripps Research Institute Molecular Screening Center, 2007).
The list shows a part of the results, in another mix than the full data. Some of these compounds have results that are not shown, active ones among them. Calls of active or inactive are those of the source.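 Rule for the calls: active = inhibition above the screen-wide mean inhibition plus 3 SD (cut at about 15% in these data); inactive = the rest.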

By UniProt entry, the sequences of proteins in these tests, tags left out.
UniProt P54760, whole entry: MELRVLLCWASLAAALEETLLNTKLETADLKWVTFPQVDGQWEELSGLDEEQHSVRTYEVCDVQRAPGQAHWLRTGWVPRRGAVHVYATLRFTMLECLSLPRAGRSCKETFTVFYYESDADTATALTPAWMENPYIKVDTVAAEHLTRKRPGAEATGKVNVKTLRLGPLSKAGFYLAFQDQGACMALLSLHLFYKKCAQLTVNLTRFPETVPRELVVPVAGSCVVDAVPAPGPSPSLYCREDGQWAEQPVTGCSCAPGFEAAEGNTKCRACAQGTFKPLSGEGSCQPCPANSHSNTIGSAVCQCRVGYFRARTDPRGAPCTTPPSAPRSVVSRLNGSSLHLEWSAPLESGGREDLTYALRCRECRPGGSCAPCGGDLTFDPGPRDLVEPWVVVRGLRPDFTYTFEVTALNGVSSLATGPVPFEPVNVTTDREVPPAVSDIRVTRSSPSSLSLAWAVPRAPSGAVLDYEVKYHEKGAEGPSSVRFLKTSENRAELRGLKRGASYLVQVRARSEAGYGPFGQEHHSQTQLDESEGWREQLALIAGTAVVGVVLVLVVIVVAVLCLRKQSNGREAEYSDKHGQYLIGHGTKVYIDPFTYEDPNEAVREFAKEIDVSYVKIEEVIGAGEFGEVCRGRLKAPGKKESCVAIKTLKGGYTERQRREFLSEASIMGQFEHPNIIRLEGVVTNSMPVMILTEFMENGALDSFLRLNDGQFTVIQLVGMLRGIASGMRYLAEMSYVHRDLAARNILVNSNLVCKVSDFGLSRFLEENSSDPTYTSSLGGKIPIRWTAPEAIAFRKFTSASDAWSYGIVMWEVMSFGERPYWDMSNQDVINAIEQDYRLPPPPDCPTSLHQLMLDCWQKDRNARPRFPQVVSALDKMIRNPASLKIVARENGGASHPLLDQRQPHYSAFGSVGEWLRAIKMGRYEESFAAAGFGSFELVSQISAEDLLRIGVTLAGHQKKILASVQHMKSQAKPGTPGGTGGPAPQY

What follows are molecules tested against Ephrin type-B receptor 4 (Homo sapiens) (UniProt P54760) (assay: blockers of EphB4 ligand binding – biochemical, TNYL-RAW peptide probe, fluorescence polarization, primary screen (AID 720;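 note: 0% = DMSO wells and 100% = excess unlabeled TNYL-RAW peptide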)). Conditions: EphB4 LBD / TNYL-RAW-Alexa532 peptide, at 7 µM, active compounds read high.

Compound	inhibition
O=C(OC1CN2CCC1CC2)C(CO)(c1ccccc1)c1ccccc1 (stereo not drawn)	inactive: -4.24%
CN(C)c1cccc(C(=O)NCC2(N(C)C)CCCCC2)c1	inactive: -1.72%
CC(C)N1C(=O)CC2(CCN(CCOC(=O)C(O)(c3ccccc3)c3ccccc3)CC2)C1=O	inactive: -0.47%
